In patent publication EP4703362A1 (Chengdu Sibeibo Pharmaceutical Technology Co., Ltd, priority 2023, dated 2024) one finds Ki ratio data, which are given here for one compound.

This assay concerns the target T1, CGRP receptor (Homo sapiens, UniProt O60894+Q16602).
T1 construct: A tissue homogenate of SK-N-MC cell membrane was used as a receptor source; host or cells: SK-N-MC (membrane preparation)
The assay is described as follows: Competitive binding determination of in-vitro [125I] CGRP. Conditions: Ki (compound)/Ki (Zavegepant). Here is the method: The ability of the compound to compete for a radiolabelled endogenous peptide human αCGRP ([^125I] CGRP) was determined.
The SK-N-MC cells endogenously expressed a CGRP receptor with the same sequence as the human CGRP receptor. A tissue homogenate of SK-N-MC cell membrane was used as a receptor source, and the radiolabelled endogenous peptide human αCGRP ([^125I] CGRP) and the compound competitively bound with the receptor source. After washing the unbound part of [^125I] CGRP, the binding of the reaction compound on the receptor could be detected by a radioactive signal.
3.1 Experimental cell line: SK-N-MC (human neuroepithelioma cells) from Cell Resource Center, Peking Union Medical College 3.2 Detection equipment: MicroBeta2 (PerkinElmer), and […]-96 well cell collector (PerkinElmer, C961961) 3.3 Experimental reagents and consumables
3.4 Experimental steps • 3.4.1 Extraction and quantification of membrane protein: fresh SK-N-MC cells were collected. The cell pellet was resuspended with an experimental buffer (Tris-HCl 50 mM, pH 7.4). The cells were homogenized 10 times by a homogenizer, and centrifuged at 1000 g and 4°C for 10 minutes, then nuclear/mitochondrial fragments were removed, and a supernatant tissue homogenate was collected. […] A ^3H signal was captured by a MicroBeta2 Reader counting filter. • 3.4.3 Data analysis
Data were analyzed by Prism 5.

For the compound `Cc1cc(C[C@@H](NC(=O)N2CCC(c3cc4c([nH]c3=O)SCC4)CC2)C(=O)N2CCN(C3CCN(C)CC3)CC2)cc2cn[nH]c12` [Example 8, (R)-N-(3-(7-methyl-1H-indazole-5-yl)-1-(4-(1-methylpiperidine-4-yl)piperazine-1-yl)-1-oxopropan-2-yl)-4-(6-oxo-2,3,6,7-tetrahydrothieno[2,3-b]pyridine-5-yl)piperidine-1-formamide], the Ki ratio was 0.23.
